Biological target: Fcγ receptor (determined with U937 cells)
Assay: Fcγ receptor binding on U937 cells, method of Anderson et al.

| Substance | Kd |
| --- | --- |
| CD44γ1 immunoadheson (CD4 residues 1-366 fused to the constant region of human immunoglobulin γ1; product of pRKCD44γ1) (from UniProt P01730 26-391; P01857 1-330) (Fc fusion) | 2.83 nM |
| CD42γ1 immunoadheson (CD4 residues 1-180 fused to the constant region of human immunoglobulin γ1; product of pRKCD42γ1) (from UniProt P01730 26-205; P01857 1-330) (Fc fusion) | 3.01 nM |
